## AlphaSeq binding of Ab-14 heavy chain variants to a spike HR2 peptide

From the AlphaSeq antibody data of Li et al. 2023 (doi:10.1038/s41467-023-39022-2), copy in the FLAb collection.

Target: peptide PDVDLGDISGINAS, taken from heptad repeat 2 (HR2) of SARS-CoV-2 spike.

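The variants were designed computationally from a first round of random CDR variants and then made and measured. Group labels follow the data file (Rand: our label for a block that the file lists under HC and that is probably the random mutants of the ten best first-round binders; En: ensemble of fine-tuned language models; HC: hill climbing; Gen: genetic algorithm; Gibbs: Gibbs sampling; a sequence that several methods proposed may carry one label only). The assay is AlphaSeq: two haploid yeast populations carry antibody and antigen on their surface. After mating in shaken culture at 30 °C for 16 h, diploids were selected and their barcode pairs sequenced. The ratio of observed to expected reads was calibrated, replicate by replicate, on BCL2-family standards whose Kd was known from biolayer interferometry. Mating was done six times.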

Parent scFv Ab-14: VH joined to VL by three GGGGS repeats. Changes lie in the heavy chain CDRs alone.
VH: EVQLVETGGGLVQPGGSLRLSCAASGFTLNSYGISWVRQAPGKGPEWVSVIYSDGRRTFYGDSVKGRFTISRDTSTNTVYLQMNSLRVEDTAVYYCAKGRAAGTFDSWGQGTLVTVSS
VL: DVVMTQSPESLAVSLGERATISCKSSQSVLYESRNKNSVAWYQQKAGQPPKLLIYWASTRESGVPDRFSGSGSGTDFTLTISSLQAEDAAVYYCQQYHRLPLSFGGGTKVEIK

The parent's heavy chain CDRs are GFTLNSYGIS, VIYSDGRRTFYGDSVK, GRAAGTFDS; each variant's own CDRs replace them letter for letter. Variants here have more than six changes. The Kd shown is the geometric mean over detected replicates; a lower Kd is a better binder. "nd" means that the variant was in the library but no mating with the target was seen in any replicate; the authors take this as a sign of poor binding, and no number exists. Empty control strains, which show no peptide, gave a signal in 1% of pairings with all heavy chain designs; the median was 120 nM and 95% of these signals were weaker than 7.0 nM. No background was subtracted. Also given: how often the same scFv was detected with the empty control strains. The parent sequence was in this pool as ten entries: three were never detected, three once, and four in most replicates, with averages from 2.2 nM to 240 nM. The authors averaged sequences with at least three values out of six and counted those with two or fewer as poor binders. Values of this round are not directly comparable with the first-round values of the same sequences.

Variant GFDLNEYGIS / VIYADGMRTAYADNVK / GNTAGTFDQ [En_Gen] gave nd (0 of 6 replicates; controls 1 of 18). Variant GFDLEEYGIS / VIYADGMRTAYSDSVK / GNVAGTFDT [En_Gen] gave 650 pM (6 of 6 replicates; controls 0 of 18). Variant GDILEDYGIS / VIYADGRRRAYVENVK / GVYAGYFDV [En_Gibbs] showed nd (0 of 6 replicates; controls 0 of 18). For GFNLNEYGIS / VIYADGKRTFYADSVK / GGAAGTFDV [En_HC], the assay gave 260 pM (6 of 6 replicates; controls 0 of 18). With GFDLNEYGIS / VIYADGKRTAYADSVK / GNEAGTFDI [En_Gen] the result was 750 pM (3 of 6 replicates; controls 0 of 18).

Variant GFDLNEYGIS / VIYADGKRTAYVDDVK / GEVAGTFDV [En_Gen] showed 260 pM (6 of 6 replicates; controls 0 of 18). For GFDLNEYGIS / VIYADGMRKYYADSVK / GNVAGTFDQ [En_Gen], the assay gave 340 pM (6 of 6 replicates; controls 0 of 18). With GFDLDEYGIS / VIYADGVRTAYTDSVK / GENAGTFDV [En_Gen] the result was 740 pM (6 of 6 replicates; controls 0 of 18). For NFTLDSYGIS / VMYSDGRRTFWGDSVK / GEAAGTALS [Rand], the assay gave nd (0 of 6 replicates; controls 0 of 18). For GFDLNEYGIS / VIYADGVRTAYADSVK / GENAGTFDL [En_Gen], the assay gave 870 pM (3 of 6 replicates; controls 0 of 18).

Variant GFDLNEYGIS / VIYADGVRTAYADSVK / GEVAGTFDL [En_Gen] showed 360 pM (6 of 6 replicates; controls 0 of 18). For GFDLNEYGIS / VIYADGMRTVYADSVK / GQTAGTFDV [En_Gen], the assay gave 1.6 nM (6 of 6 replicates; controls 0 of 18). With GFDLNEYGIS / VIYADGIRTAYSDSVK / GNVAGTFDL [En_Gen] the result was 1.5 nM (6 of 6 replicates; controls 0 of 18). For GFSLDEYGIS / VIYADGMRTAYADSVK / GNVAGTFDL [En_Gen], the assay gave 250 pM (6 of 6 replicates; controls 0 of 18). Variant GFNLNEYGIS / VIYADGMRTNYADKVK / GGLDVQEGY [En_Gibbs] gave nd (0 of 6 replicates; controls 1 of 18).

Variant GFDLDEYGIS / VIYADGKRTAYSDSVK / GENAGTFDT [En_Gen] gave 460 pM (6 of 6 replicates; controls 1 of 18). Variant GFDLEEYGIS / VIYADGRRTFYSDSVK / GEQAGTFDV [En_HC] showed 160 pM (6 of 6 replicates; controls 0 of 18). For KFDIEEYGIS / VIYADGERTSYSNAVK / GNMGGTFLI [En_Gibbs], the assay gave 19 nM (1 of 6 replicates; controls 0 of 18). With GFNLNEYGIS / VIYADGRRTFYADSVK / GQQAGTFVM [En_HC] the result was 550 pM (6 of 6 replicates; controls 0 of 18). For GFDLNEYGIS / VIYADGMRTFYSDSVK / GNVAGTFDI [En_Gen], the assay gave 550 pM (6 of 6 replicates; controls 0 of 18).

Variant EMDLQEFGIS / VIYADGKREAYKDDFK / GQIAGTFDL [En_Gibbs] gave nd (0 of 6 replicates; controls 0 of 18). Variant GFDINEYGIS / VIYADGMRKAVEQNVK / GNNGRSVVI [En_Gibbs] showed nd (0 of 6 replicates; controls 0 of 18). Variant GFDLDEYGIS / VIYADGMRTAYTDSVK / GNNAGTFDT [En_Gen] showed 230 pM (6 of 6 replicates; controls 0 of 18). Variant GFDLNEYGIS / VIYADGMRTFYADSVK / GNQAGTFDL [En_Gen] gave 330 pM (6 of 6 replicates; controls 0 of 18). Variant GFDLNEYGIS / VIYADGVRTSYADSVK / GNNAGTFDM [En_Gen] gave 13 nM (6 of 6 replicates; controls 0 of 18).

With GFDLDEYGIS / VIYADGMRTAYADSVK / GHNAGTFDV [En_Gen] the result was 820 pM (6 of 6 replicates; controls 1 of 18). For GFDLNEYGIS / VIYADGMRTAYVDSVK / GNQAGTFDM [En_Gen], the assay gave 190 pM (5 of 6 replicates; controls 0 of 18). With GFDLNEYGIS / VIYADGRRTAYDDSVK / GQVAGTFDN [En_HC] the result was 220 pM (6 of 6 replicates; controls 0 of 18). For GFDLNEYGIS / VIYADGRRTFYTDSVK / GEMAGTFDQ [En_HC], the assay gave 470 pM (6 of 6 replicates; controls 0 of 18). For GFDLNEYGIS / VIYADGRRTFYTDSVK / GESAGTFDQ [En_HC], the assay gave 560 pM (6 of 6 replicates; controls 2 of 18).

With GFDLDEYGIS / VIYADGMRTAYADNVK / GNQAGTFDI [En_Gen] the result was 190 pM (6 of 6 replicates; controls 0 of 18). Variant GADIQEYGIS / VIYADGIRTAYANNVK / GEYGSQFDE [En_Gibbs] showed nd (0 of 6 replicates; controls 0 of 18). With GFDLNEYGIS / VIYADGRRTFYADSVK / GQNAGTFVL [En_HC] the result was nd (0 of 6 replicates; controls 1 of 18). For GFDLMEYGIS / VIYADGKRTGYTDKVK / GWFGDTGKT [En_Gibbs], the assay gave nd (0 of 6 replicates; controls 0 of 18). With GFTSNQYGIS / VIYSDGRRGFYSDAVK / GRCAGFFDS [Rand] the result was nd (0 of 6 replicates; controls 0 of 18).

For GFDLNEYGIS / VIYADGRRTAYIDSVK / GSNAGTFDV [En_HC], the assay gave 220 pM (6 of 6 replicates; controls 2 of 18). With GFDLNEYGIS / VIYADGRRTAYLDSVK / GQVAGTFDT [En_HC] the result was 350 pM (6 of 6 replicates; controls 1 of 18). For GFDLNEYGIS / VIYADGMRTFYVDSVK / GENAGTFDV [En_Gen], the assay gave 3.0 nM (6 of 6 replicates; controls 0 of 18). Variant GFDLDEYGIS / VIYADGKRTAYADDVK / GSNAGTFDV [En_Gen] gave 510 pM (6 of 6 replicates; controls 0 of 18). For GFNLDEYGIS / VIYADGRRTFYADSVK / GETAGTFDV [En_HC], the assay gave 370 pM (6 of 6 replicates; controls 0 of 18).

With GFDLNEYGIS / VIYADGMRTFYTDSVK / GEFAGTFDL [En_HC] the result was 3.5 nM (6 of 6 replicates; controls 2 of 18). With GFDLNEYGIS / VIYADGVRTQYIDSVK / GNEAGTFDV [En_HC] the result was 7.3 nM (5 of 6 replicates; controls 0 of 18). Variant GFDLDEYGIS / VIYADGMRTAYADNVK / GENAGTFDL [En_Gen] gave 1.2 nM (6 of 6 replicates; controls 0 of 18). With GFDLNEYGIS / VIYADGVRTFYVDSVK / GETAGTFDN [En_HC] the result was 350 pM (6 of 6 replicates; controls 0 of 18). With GFDLNEYGIS / VIYADGVRTAYSDSVK / GNEAGTFDV [En_Gen] the result was 140 pM (6 of 6 replicates; controls 0 of 18).

Variant GFDLNEYGIS / VIYADGLRTAYADDVK / GNVAGTFDL [En_Gen] showed 530 pM (6 of 6 replicates; controls 0 of 18). Variant GMNLDEYGIS / VIYADGLRTEYANTVK / GEMAGFFMD [En_Gibbs] gave nd (0 of 6 replicates; controls 0 of 18). With GFDLNEYGIS / VIYADGRRTAYTDSVK / GEHAGIFDV [En_HC] the result was nd (0 of 6 replicates; controls 0 of 18).

Repeated from above, the 6 best binders with a signal in all replicates:

CDR-H1	CDR-H2	CDR-H3	group	Kd	detected	empty controls
GFDLNEYGIS	VIYADGVRTAYSDSVK	GNEAGTFDV	En_Gen	140 pM	6/6	0/18
GFDLEEYGIS	VIYADGRRTFYSDSVK	GEQAGTFDV	En_HC	160 pM	6/6	0/18
GFDLDEYGIS	VIYADGMRTAYADNVK	GNQAGTFDI	En_Gen	190 pM	6/6	0/18
GFDLNEYGIS	VIYADGRRTAYIDSVK	GSNAGTFDV	En_HC	220 pM	6/6	2/18
GFDLNEYGIS	VIYADGRRTAYDDSVK	GQVAGTFDN	En_HC	220 pM	6/6	0/18
GFDLDEYGIS	VIYADGMRTAYTDSVK	GNNAGTFDT	En_Gen	230 pM	6/6	0/18